Values of other authors as cited in patent publication US20180296561A1, “The Methods For Treatment Of Tumors” (The University of North Carolina at Chapel Hill, priority 2015, published 2018).

Chains of the proteins cited; added tags and fusions are not shown. Residues count along the entry.
UniProt P36888, 27-993: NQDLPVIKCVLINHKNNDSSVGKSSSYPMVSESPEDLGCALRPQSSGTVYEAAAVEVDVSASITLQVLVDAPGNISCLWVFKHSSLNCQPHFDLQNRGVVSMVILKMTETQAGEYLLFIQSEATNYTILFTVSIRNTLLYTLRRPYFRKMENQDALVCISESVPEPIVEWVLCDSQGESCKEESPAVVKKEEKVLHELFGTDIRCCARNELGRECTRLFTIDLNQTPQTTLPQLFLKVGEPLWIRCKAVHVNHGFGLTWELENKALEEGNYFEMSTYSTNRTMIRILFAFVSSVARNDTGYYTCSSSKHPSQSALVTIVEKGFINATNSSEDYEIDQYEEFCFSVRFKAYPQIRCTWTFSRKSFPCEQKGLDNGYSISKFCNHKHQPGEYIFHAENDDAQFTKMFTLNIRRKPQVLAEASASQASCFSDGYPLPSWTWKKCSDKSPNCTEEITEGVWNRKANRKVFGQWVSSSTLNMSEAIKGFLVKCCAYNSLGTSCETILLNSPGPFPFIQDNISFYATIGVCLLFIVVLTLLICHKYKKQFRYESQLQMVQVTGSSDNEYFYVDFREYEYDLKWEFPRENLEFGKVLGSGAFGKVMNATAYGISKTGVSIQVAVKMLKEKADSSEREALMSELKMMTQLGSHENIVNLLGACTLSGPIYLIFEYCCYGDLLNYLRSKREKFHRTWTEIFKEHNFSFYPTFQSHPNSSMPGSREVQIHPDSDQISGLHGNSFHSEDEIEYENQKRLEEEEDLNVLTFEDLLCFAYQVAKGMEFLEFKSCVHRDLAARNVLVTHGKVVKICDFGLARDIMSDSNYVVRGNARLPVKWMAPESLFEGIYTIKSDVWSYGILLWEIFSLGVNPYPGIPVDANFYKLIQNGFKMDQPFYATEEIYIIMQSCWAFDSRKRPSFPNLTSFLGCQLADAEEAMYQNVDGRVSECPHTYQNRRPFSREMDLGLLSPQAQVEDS

Biological target: FLT3 (Homo sapiens, UniProt P36888)
Settings: cited from earlier work

CCCCNc1ncc2c(-c3ccc(CN4CCN(C)CC4)cc3)cn(C3CCC(O)CC3)c2n1 (stereo not shown) [UNC2025A]
inhibitory activity against FLT3: dual inhibitory activity
